Test system: MT-4 cells
Experiment: Cytotoxicity on virus-non-infected MT-4 cells, MTT method
Format: cell-based
Conditions: 5 days at 37° C.

Dextran sulfate [reference compound]
CC50 (50% cytotoxic concentration): > 1000 µg/mL
